Here are results for two molecules from US9402842B2, “Synthesis and use of dual tyrosyl-DNA phosphodiesterase I (Tdp1)—topoisomerase I (Top1) inhibitors” (Purdue Research Foundation, priority 2012, dated 2016).

Amino acid sequences for entries named in this document (tags omitted).
UniProt Q9NUW8, whole entry: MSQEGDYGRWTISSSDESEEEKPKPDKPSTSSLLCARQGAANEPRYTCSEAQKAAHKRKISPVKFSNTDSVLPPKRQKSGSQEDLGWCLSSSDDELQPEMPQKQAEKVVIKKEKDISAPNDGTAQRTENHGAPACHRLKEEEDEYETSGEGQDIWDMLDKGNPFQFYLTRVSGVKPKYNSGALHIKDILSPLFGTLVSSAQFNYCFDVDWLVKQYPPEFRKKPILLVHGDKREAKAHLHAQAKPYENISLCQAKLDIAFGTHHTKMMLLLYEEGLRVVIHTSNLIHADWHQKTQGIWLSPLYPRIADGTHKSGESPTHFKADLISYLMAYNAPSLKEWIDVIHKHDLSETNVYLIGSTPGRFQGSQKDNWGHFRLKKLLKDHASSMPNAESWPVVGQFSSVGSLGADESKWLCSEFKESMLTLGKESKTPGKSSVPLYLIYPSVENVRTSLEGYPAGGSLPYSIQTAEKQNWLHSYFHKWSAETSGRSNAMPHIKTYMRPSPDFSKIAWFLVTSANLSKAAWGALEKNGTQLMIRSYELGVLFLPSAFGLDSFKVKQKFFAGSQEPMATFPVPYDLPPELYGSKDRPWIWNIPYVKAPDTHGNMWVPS

One data set addresses Tdp1 (Homo sapiens (Human), UniProt Q9NUW8). Briefly: Gel-based assay measuring the inhibition of recombinant Tdp1. The data set is classed as biochemical.
For a further data set, the system named is OVCAR-3. Briefly: NCI screen cytotoxicity, ovarian OVCAR-3. As to conditions: read-out: Cytotoxicity (GI50 in μM) ovarian OVCAR-3; 50% growth inhibition.

In the case of `CC(=O)OCCn1c2c(c3ccccc3c1=O)C(=O)c1ccccc1-2` [Compound 31, 2-(5,11-Dioxo-5H-indeno[1,2-c]isoquinolin6(11H)-yl)ethyl Acetate], the “Tdp1 inhibitory activity (in words)” value at Tdp1 was “weakly active”.
Broadly, the GI50 is the concentration giving 50% growth inhibition. With “N-(6-(5,11-Dioxo-5H-indeno[1,2-c]isoquinolin-6(11H)hexyl)-methanesulfonamide [Compound 84]”, in the data set with OVCAR-3, the GI50 is 1.32 µM.
